# Molecular target: D(1A) dopamine receptor (Homo sapiens, UniProt P21728)
# Sequences of proteins named here, by UniProt entry; tags and fusion partners are left off.
# UniProt P21728, whole entry: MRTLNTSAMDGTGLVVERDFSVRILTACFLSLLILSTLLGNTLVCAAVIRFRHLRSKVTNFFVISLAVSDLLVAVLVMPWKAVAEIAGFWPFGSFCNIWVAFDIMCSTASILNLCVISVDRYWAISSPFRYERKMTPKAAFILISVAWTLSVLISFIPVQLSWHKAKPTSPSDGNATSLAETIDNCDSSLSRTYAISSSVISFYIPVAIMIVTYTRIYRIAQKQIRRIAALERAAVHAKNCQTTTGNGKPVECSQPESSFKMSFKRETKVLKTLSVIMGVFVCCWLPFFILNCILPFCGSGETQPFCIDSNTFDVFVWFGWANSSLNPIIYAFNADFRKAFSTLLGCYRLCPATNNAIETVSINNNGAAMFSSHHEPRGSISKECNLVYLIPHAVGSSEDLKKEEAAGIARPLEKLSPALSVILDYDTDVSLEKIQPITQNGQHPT
smiles,measurement,value
OCCN1CCN(CC/C=C2/c3ccccc3Sc3ccc(C(F)(F)F)cc32)CC1 [(cis) 2-{4-[3-(2-Trifluoromethyl-thioxanthen-9-ylidene)-propyl]-piperazin-1-yl}-ethanol(Flupentixol)],Ki,4 nM

# — BindingDB's records for doi:10.1073/pnas.88.17.7491 (Duke University, 1991)
